# CycPeptMPDB entries from one study

Data: CycPeptMPDB; original report Townsend et al. 2020, doi:10.26434/chemrxiv.13335941.v1.

PAMPA measures passive passage through an artificial lipid membrane.
P is given in units of 10^-6 cm/s (from log10 values with two decimals); larger means faster passage.

SMILES	PAMPA (10^-6 cm/s)
CC(C)C[C@@H]1NC(=O)[C@H](C)NC(=O)[C@H](Cc2ccccc2)NC(=O)[C@H](CC(C)C)N(C)C(=O)[C@H]2CCCN2C(=O)CN(Cc2ccccc2)C1=O	1.5
CC(C)C[C@@H]1NC(=O)[C@H](C)N(C)C(=O)[C@@H]2CCCN2C(=O)[C@H](Cc2ccccc2)NC(=O)[C@H](CC(C)C)N(C)C(=O)[C@@H]2CCCN2C(=O)[C@H](CC(C)C)NC1=O	1.4
CC(C)C[C@H]1NC(=O)[C@H](C)NC(=O)[C@H](Cc2ccccc2)NC(=O)CN(Cc2ccccc2)C(=O)[C@@H]2CCCN2C(=O)[C@H](CC(C)C)N(C)C1=O	2.2
CCCN1CC(=O)N(C)[C@@H](CC(C)C)C(=O)N(C)[C@@H](CC(C)C)C(=O)N2CCC[C@@H]2C(=O)N[C@@H](CC(C)C)C(=O)N[C@@H](Cc2ccccc2)C(=O)N2CCC[C@H]2C1=O	0.62
CC(C)C[C@@H]1NC(=O)[C@H](CC(C)C)N(C)C(=O)C[C@H](Cc2ccccc2)NC(=O)[C@@H]2CCCN2C(=O)[C@H](Cc2ccccc2)NC(=O)[C@@H](CC(C)C)NC(=O)[C@H]2CCCN2C1=O	3.5
CC(C)C[C@@H]1C(=O)N(Cc2ccccc2)CC(=O)N2CCC[C@@H]2C(=O)N(C)[C@@H](CC(C)C)C(=O)N[C@@H](Cc2ccccc2)C(=O)N2CCC[C@H]2C(=O)N(C)[C@H](C)C(=O)N1C	5.6
CC(C)C[C@@H]1NC(=O)[C@@H](CC(C)C)NC(=O)[C@@H](C)N(C)C(=O)[C@H](Cc2ccccc2)NC(=O)CN(Cc2ccccc2)C(=O)[C@@H]2CCCN2C1=O	2
CC(C)C[C@@H]1C(=O)N2CCC[C@@H]2C(=O)N[C@H](CC(C)C)C(=O)N[C@@H](Cc2ccccc2)C(=O)N2CCC[C@H]2C(=O)N(C)[C@H](C)C(=O)N(C)[C@@H](CC(C)C)C(=O)N1C	6.2
CCCN1CC(=O)N(Cc2ccccc2)CC(=O)N(C)[C@H](CC(C)C)C(=O)N2CCC[C@@H]2C(=O)N(C)[C@H](CC(C)C)C(=O)N[C@@H](Cc2ccccc2)C(=O)N2CCC[C@@H]2C1=O	1.2
CCCN1CC(=O)N(C)[C@@H](CC(C)C)C(=O)N(C)[C@@H](CC(C)C)C(=O)N2CCC[C@H]2C(=O)N(Cc2ccccc2)CC(=O)N[C@@H](Cc2ccccc2)C(=O)N2CCC[C@@H]2C1=O	2.5
CC(C)C[C@@H]1NC(=O)[C@H]2CCCN2C(=O)CN(Cc2ccccc2)C(=O)[C@@H](CC(C)C)NC(=O)[C@@H](C)N(C)C(=O)[C@@H]2CCCN2C(=O)[C@H](Cc2ccccc2)NC1=O	1
CCCN1CC(=O)N[C@H](CC(C)C)C(=O)N(Cc2ccccc2)CC(=O)N2CCC[C@@H]2C(=O)N[C@H](CC(C)C)C(=O)N[C@@H](Cc2ccccc2)C1=O	3.7

Extract of 2 entries:

{"smiles": "CCCN1CC(=O)N(C)[C@@H](CC(C)C)C(=O)N(C)[C@@H](CC(C)C)C(=O)N2CCC[C@@H]2C(=O)N[C@@H](CC(C)C)C(=O)N[C@@H](Cc2ccccc2)C(=O)N2CCC[C@H]2C1=O", "PAMPA (10^-6 cm/s)": "0.62"}
{"smiles": "CCCN1CC(=O)N(Cc2ccccc2)CC(=O)N(C)[C@H](CC(C)C)C(=O)N2CCC[C@@H]2C(=O)N(C)[C@H](CC(C)C)C(=O)N[C@@H](Cc2ccccc2)C(=O)N2CCC[C@@H]2C1=O", "PAMPA (10^-6 cm/s)": "1.2"}

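The data file gives no further conditions (lipid, pH, time, direction or concentration), and values from different papers need not be comparable. Other peptides of the study may be missing here. Entries at the database's floor value (log10 P of -10) are not listed.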